Structures are written as SMILES. The entries are a selection whose mix differs from that of the whole data set. Some of these compounds have results that are not shown, active ones among them. Calls of active or inactive are those of the source. No stated cut-off is given here; in the data, active means inhibition above about 17%; inactive means the rest.

Amino acid sequences for entries named in this document (tags omitted).
UniProt P49146, whole entry: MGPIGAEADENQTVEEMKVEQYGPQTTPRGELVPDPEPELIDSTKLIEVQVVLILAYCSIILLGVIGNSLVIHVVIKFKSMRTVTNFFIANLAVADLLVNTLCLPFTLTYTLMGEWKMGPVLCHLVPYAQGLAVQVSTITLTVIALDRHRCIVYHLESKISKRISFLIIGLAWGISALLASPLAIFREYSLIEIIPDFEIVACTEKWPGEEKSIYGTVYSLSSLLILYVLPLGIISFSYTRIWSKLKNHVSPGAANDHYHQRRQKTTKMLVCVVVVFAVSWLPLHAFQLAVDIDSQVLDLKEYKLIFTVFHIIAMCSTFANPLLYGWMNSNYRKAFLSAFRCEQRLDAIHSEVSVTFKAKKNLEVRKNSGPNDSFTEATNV

The test addresses Neuropeptide Y receptor type 2 (Homo sapiens) (UniProt P49146). Briefly: blockers of human neuropeptide Y Y2 receptor – cell-based, primary screen (AID 793).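 Further: 0% = vehicle with agonist challenge and 100% = reference antagonist with challenge.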 The settings on record: NPY-Y2 expressing cells, antagonist mode; at 2.7 µM; stronger effect = higher value.
In the case of `O=C(OC1CN2CCC1CC2)C(CO)(c1ccccc1)c1ccccc1` (stereo not given), the inhibition (commonly the relative decrease from the control value, in per cent) was inactive: 6.69%.

Take `CN(C)c1cccc(C(=O)NCC2(N(C)C)CCCCC2)c1`: the inhibition was inactive: -1.31%. Regarding `CC(C)N1C(=O)CC2(CCN(CCOC(=O)C(O)(c3ccccc3)c3ccccc3)CC2)C1=O`, the inhibition was inactive: 0.74%. Take `CN(C)C1CCCC1OC(=O)C(O)(c1ccccc1)c1ccccc1` (stereo not given): the inhibition was inactive: 1.06%. On to `CCN1CCCC(OC(=O)C2(O)c3ccccc3C=Cc3ccccc32)C1` (stereo not given), for which the inhibition was inactive: -0.76%.

For the origin of these results see PubChem BioAssay AID793 (The Scripps Research Institute Molecular Screening Center, 2007).
